# From paper PMC12245028, “Macrophage WEE1 Directly Binds to and Phosphorylates NF‐κB p65 Subunit to Induce Inflammatory Response and Drive Atherosclerosis” (Advanced Science, 2025)
# B1: Recombinant human p65 (rhp65) (natural protein, UniProt Q04206 1-551, looked up)
# chain: MDELFPLIFPAEPAQASGPYVEIIEQPKQRGMRFRYKCEGRSAGSIPGERSTDTTKTHPTIKINGYTGPGTVRISLVTKDPPHRPHPHELVGKDCRDGFYEAELCPDRCIHSFQNLGIQCVKKRDLEQAISQRIQTNNNPFQVPIEEQRGDYDLNAVRLCFQVTVRDPSGRPLRLPPVLSHPIFDNRAPNTAELKICRVNRNSGSCLGGDEIFLLCDKVQKEDIEVYFTGPGWEARGSFSQADVHRQVAIVFRTPPYADPSLQAPVRVSMQLRRPSDRELSEPMEFQYLPDTDDRHRIEEKRKRTYETFKSIMKKSPFSGPTDPRPPPRRIAVPSRSSASVPKPAPQPYPFTSSLSTINYDEFPTMVFPSGQISQASALAPAPPQVLPQAPAPAPAPAMVSALAQAPAPVPVLAPGPPQAVAPPAPKPTQAGEGTLSEALLQLQFDDEDLGALLGNSTDPAVFTDLASVDNSEFQQLLNQGIPVAPHTTEPMLMEYPEAITRLVTGAQRPPDPAPAPLGAPGLPNGLLSGDEDFSSIADMDFSALLSQISS
# modifications: biotin (biotinylated with a Biotinylation Kit for the BLI assay; not for SPR)
# notes: Recombinant human p65 (NF-κB p65, RELA); No catalogue number is printed; also called biotin labeled‐p65 protein; source: bought: Abiocenter (Beijing, China)
# What was measured:
# [1] = target: T1, Recombinant human WEE1 protein (rhWEE1) (human, UniProt P30291); assay: BLI; FortéBio Octet Red 96; biotinylated rhp65 loaded on super streptavidin (SSA) sensors; rhWEE1 at 12.5, 25, 50, 100 and 200 nM; 25 mM HEPES, 150 mM NaCl, 0.02% Tween-20; conditions: both partners purified
# T1 construct: Recombinant human WEE1 protein; No catalogue number is printed; source: bought: Abiocenter (Beijing, China)
# [2] = target: T1, Recombinant human WEE1 protein (rhWEE1); assay: SPR; Biacore T200, CM7 chip; rhWEE1 immobilised by amine coupling (10 mM acetate pH 5.0); rhp65 flowed in PBS with 5% DMSO, 30 µL/min, 25 °C; 1:1 Langmuir model, global fit; conditions: both partners purified
binder,measurement,setting,value
B1,Kd,[1],13.7 nM
same,Kd,[2],73.3 nM
